Measurements as given in patent US6936585B2, “Corticotropin releasing factor 2 receptor agonists” (priority 2002, dated 2005).

Assays:
[1] = target: T1, CRF1R (Homo sapiens, UniProt P34998); assay: CRF1R agonist activation (EC50 / Emax), called comparative CRF binding; format: cell-based; conditions: read-out: CRF1R Emax
T1 sequence (P34998 24-415): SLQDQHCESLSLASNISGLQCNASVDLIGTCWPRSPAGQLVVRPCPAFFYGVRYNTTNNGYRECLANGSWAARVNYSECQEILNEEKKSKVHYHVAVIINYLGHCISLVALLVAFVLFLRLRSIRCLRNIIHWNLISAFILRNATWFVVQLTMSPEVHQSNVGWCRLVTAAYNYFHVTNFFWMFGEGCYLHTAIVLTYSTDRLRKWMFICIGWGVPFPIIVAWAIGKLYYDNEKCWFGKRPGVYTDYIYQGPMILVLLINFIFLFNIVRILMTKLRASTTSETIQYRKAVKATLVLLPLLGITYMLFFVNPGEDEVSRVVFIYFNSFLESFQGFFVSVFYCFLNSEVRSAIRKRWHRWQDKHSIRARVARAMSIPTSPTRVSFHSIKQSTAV
Outline: (§1)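 Cells expressing human CRF1R or CRF2R are exposed to peptide or vehicle control, and receptor activation is read as cAMP induction, measured in cell lysates or via a CRE-linked reporter gene.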

[2] = target: T2, CRF2R (Homo sapiens, UniProt Q13324); assay: CRF2R agonist activation (EC50 / Emax), called comparative CRF binding; format: cell-based; conditions: read-out: CRF2R Emax
T2 sequence (Q13324 1-411): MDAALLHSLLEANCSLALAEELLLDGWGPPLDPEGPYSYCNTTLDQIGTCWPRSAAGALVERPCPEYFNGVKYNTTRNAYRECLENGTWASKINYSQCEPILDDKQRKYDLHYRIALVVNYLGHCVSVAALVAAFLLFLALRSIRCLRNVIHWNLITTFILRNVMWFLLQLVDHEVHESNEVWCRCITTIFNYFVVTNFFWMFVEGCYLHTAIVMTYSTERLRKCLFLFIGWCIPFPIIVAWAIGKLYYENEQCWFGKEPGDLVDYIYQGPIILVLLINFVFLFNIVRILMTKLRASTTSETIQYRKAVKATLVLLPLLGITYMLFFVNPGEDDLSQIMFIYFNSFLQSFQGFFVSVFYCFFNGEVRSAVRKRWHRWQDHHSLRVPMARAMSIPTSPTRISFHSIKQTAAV
Outline: as §1

| SMILES | Emax [1] [%] | Emax [2] [%] |
| --- | --- | --- |
| CC[C@H](C)[C@H](NC(=O)[C@H](CCCNC(=N)N)NC(=O)[C@H](C)NC(=O)[C@H](CC(N)=O)NC(=O)[C@@H](NC(=O)[C@@H](NC(=O)[C@H](C)NC(=O)[C@H](CCC(N)=O)NC(=O)[C@H](CCC(N)=O)NC(=O)[C@H](CCCCN)NC(=O)[C@H](CCC(=O)O)NC(=O)[C@H](CCCCN)NC(=O)[C@H](CCC(=O)O)NC(=O)[C@H](CCC(N)=O)NC(=O)[C@H](CCCCN)NC(=O)[C@H](CCC(=O)O)NC(=O)[C@@H](NC(=O)[C@H](CCC(=O)O)NC(=O)[C@@H](NC(=O)[C@H](CCSC)NC(=O)[C@H](CCCCN)NC(=O)[C@H](CCCNC(=N)N)NC(=O)[C@H](CC(C)C)NC(=O)[C@H](CC(C)C)NC(=O)[C@H](CCC(=O)O)NC(=O)[C@H](CC(C)C)NC(=O)[C@H](CO)NC(=O)[C@H](CC(C)C)NC(=O)[C@H](CC(=O)O)NC(=O)[C@@H](NC(=O)[C@H](CO)NC(=O)[C@@H](NC(=O)[C@@H]1CCCN1C(=O)[C@@H]1CCCN1C(=O)CNC(=O)[C@@H]1CCC(=O)N1)[C@@H](C)CC)[C@@H](C)CC)[C@@H](C)CC)[C@@H](C)CC)[C@@H](C)O)[C@@H](C)O)C(=O)N[C@@H](CC(C)C)C(=O)N[C@@H](C)C(=O)N[C@@H](CCCNC(=N)N)C(=O)N[C@H](C(N)=O)C(C)C [compound 142] | 85.3 | 77 |
| CC[C@H](C)[C@H](NC(=O)[C@@H](NC(=O)[C@H](CC(=O)O)NC(=O)[C@H](CC(C)C)NC(=O)[C@H](CC(C)C)NC(=O)[C@H](CC(C)C)NC(=O)[C@H](C)NC(=O)[C@H](CC(N)=O)NC(=O)[C@H](CC(N)=O)NC(=O)[C@H](C)NC(=O)[C@H](C)NC(=O)[C@H](CCC(N)=O)NC(=O)[C@H](CCC(N)=O)NC(=O)[C@H](CCCCN)NC(=O)[C@H](CCC(=O)O)NC(=O)[C@H](CCCCN)NC(=O)[C@H](CCC(=O)O)NC(=O)[C@H](CCC(N)=O)NC(=O)[C@H](CCCCN)NC(=O)[C@H](CCC(=O)O)NC(=O)[C@@H](NC(=O)[C@H](CCC(=O)O)NC(=O)[C@@H](NC(=O)[C@H](CCSC)NC(=O)[C@H](CCCCN)NC(=O)[C@H](CCCNC(=N)N)NC(=O)[C@H](CC(C)C)NC(=O)[C@H](CC(C)C)NC(=O)[C@H](Cc1ccc(O)cc1)NC(=O)[C@H](CCC(N)=O)NC(=O)[C@@H]1CCCN1C(=O)[C@H](CC(C)C)NC(=O)[C@H](CC(=O)O)NC(=O)[C@@H](NC(=O)[C@H](CO)NC(=O)[C@@H](NC(=O)[C@@H]1CCCN1C(=O)[C@@H]1CCCN1C(=O)CNC(=O)[C@@H]1CCC(=O)N1)[C@@H](C)CC)[C@@H](C)CC)[C@@H](C)CC)[C@@H](C)CC)[C@@H](C)O)C(N)=O [compound 224] | 27 | 100 |
| CC[C@H](C)[C@H](NC(=O)[C@@H](NC(=O)[C@H](CC(=O)O)NC(=O)[C@H](CC(C)C)NC(=O)[C@H](CC(C)C)NC(=O)[C@H](CC(C)C)NC(=O)[C@H](CCCNC(=N)N)NC(=O)[C@H](CC(N)=O)NC(=O)[C@H](CC(N)=O)NC(=O)[C@H](C)NC(=O)[C@H](C)NC(=O)[C@H](CCC(N)=O)NC(=O)[C@H](CCC(N)=O)NC(=O)[C@H](CCCCN)NC(=O)[C@H](CCC(=O)O)NC(=O)[C@H](CCCCN)NC(=O)[C@H](CCC(=O)O)NC(=O)[C@H](CCC(N)=O)NC(=O)[C@H](CCCCN)NC(=O)[C@H](CCC(=O)O)NC(=O)[C@@H](NC(=O)[C@H](CCC(=O)O)NC(=O)[C@@H](NC(=O)[C@H](CC(C)C)NC(=O)[C@@H](NC(=O)[C@H](CCCNC(=N)N)NC(=O)[C@H](CC(C)C)NC(=O)[C@H](CC(C)C)NC(=O)[C@H](CCC(N)=O)NC(=O)[C@H](Cc1ccccc1)NC(=O)[C@@H]1CCCN1C(=O)[C@H](CC(C)C)NC(=O)[C@H](CC(=O)O)NC(=O)[C@@H](NC(=O)[C@H](CO)NC(=O)[C@@H](NC(=O)[C@@H]1CCCN1C(=O)[C@@H]1CCCN1C(=O)CNC(=O)[C@@H]1CCC(=O)N1)[C@@H](C)CC)[C@@H](C)CC)[C@@H](C)CC)[C@@H](C)CC)[C@@H](C)CC)[C@@H](C)O)C(N)=O [compound 255] | 84 | 100 |
| CC[C@H](C)[C@H](NC(=O)[C@H](CCC(=O)O)NC(=O)[C@@H](NC(=O)[C@H](CCSC)NC(=O)[C@H](CCCCN)NC(=O)[C@H](CCCNC(=N)N)NC(=O)[C@H](CC(C)C)NC(=O)[C@H](CC(C)C)NC(=O)[C@H](CCC(N)=O)NC(=O)[C@H](Cc1ccccc1)NC(=O)[C@@H]1CCCN1C(=O)[C@H](CC(C)C)NC(=O)[C@H](CC(=O)O)NC(=O)[C@@H](NC(=O)[C@H](CO)NC(=O)[C@@H](NC(=O)[C@@H]1CCCN1C(=O)[C@@H]1CCCN1C(=O)CNC(=O)[C@@H]1CCC(=O)N1)[C@@H](C)CC)[C@@H](C)CC)[C@@H](C)CC)C(=O)N[C@@H](CCC(=O)O)C(=O)N[C@@H](CCCCN)C(=O)N[C@@H](CCC(N)=O)C(=O)N[C@@H](CCC(=O)O)C(=O)N[C@@H](CCCCN)C(=O)N[C@@H](CCC(=O)O)C(=O)N[C@@H](CCCCN)C(=O)N[C@@H](CCC(N)=O)C(=O)N[C@@H](CCC(N)=O)C(=O)N[C@@H](C)C(=O)N[C@H](C(=O)N[C@H](C(=O)N[C@@H](CC(N)=O)C(=O)N[C@@H](CCCNC(=N)N)C(=O)N[C@@H](CC(C)C)C(=O)N[C@@H](CC(C)C)C(=O)N[C@@H](CC(C)C)C(=O)N[C@@H](CC(=O)O)C(=O)N[C@@H](CCCNC(=N)N)C(=O)N[C@H](C(N)=O)C(C)C)[C@@H](C)O)[C@@H](C)O [compound 18] | 100 | 97 |
| CC[C@H](C)[C@H](NC(=O)[C@@H](NC(=O)[C@H](CC(=O)O)NC(=O)[C@H](CC(C)C)NC(=O)[C@H](CC(C)C)NC(=O)[C@H](CC(C)C)NC(=O)[C@H](CCCNC(=N)N)NC(=O)[C@H](CC(N)=O)NC(=O)[C@H](CC(N)=O)NC(=O)[C@H](C)NC(=O)[C@H](C)NC(=O)[C@H](CCC(N)=O)NC(=O)[C@H](CCC(N)=O)NC(=O)[C@H](CCCCN)NC(=O)[C@H](CCC(=O)O)NC(=O)[C@H](CCCCN)NC(=O)[C@H](CCC(=O)O)NC(=O)[C@H](CCC(N)=O)NC(=O)[C@H](CCCCN)NC(=O)[C@H](CCC(=O)O)NC(=O)[C@@H](NC(=O)[C@H](CCC(=O)O)NC(=O)[C@@H](NC(=O)[C@H](CCSC)NC(=O)[C@H](CCCCN)NC(=O)[C@H](CCCNC(=N)N)NC(=O)[C@H](CC(C)C)NC(=O)[C@H](CC(C)C)NC(=O)[C@@H](NC(=O)[C@@H](NC(=O)[C@@H]1CCCN1C(=O)[C@H](CC(C)C)NC(=O)[C@H](CC(=O)O)NC(=O)[C@@H](NC(=O)[C@H](CO)NC(=O)[C@@H](NC(=O)[C@@H]1CCCN1C(=O)[C@@H]1CCCN1C(=O)CNC(=O)[C@@H]1CCC(=O)N1)[C@@H](C)CC)[C@@H](C)CC)[C@@H](C)CC)[C@@H](C)CC)[C@@H](C)CC)[C@@H](C)CC)[C@@H](C)O)C(N)=O [compound 36] | 33 | 73 |
| CC[C@H](C)[C@H](NC(=O)[C@H](CCCNC(=N)N)NC(=O)[C@H](C)NC(=O)[C@H](CC(N)=O)NC(=O)[C@@H](NC(=O)[C@@H](NC(=O)[C@H](C)NC(=O)[C@H](CCC(N)=O)NC(=O)[C@H](CCC(N)=O)NC(=O)[C@H](CCCCN)NC(=O)[C@H](CCC(=O)O)NC(=O)[C@H](CCCCN)NC(=O)[C@H](CCC(=O)O)NC(=O)[C@H](CCC(N)=O)NC(=O)[C@H](CCCCN)NC(=O)[C@H](CCC(=O)O)NC(=O)[C@@H](NC(=O)[C@H](CCC(=O)O)NC(=O)[C@@H](NC(=O)[C@H](CCSC)NC(=O)[C@H](CCCCN)NC(=O)[C@H](CCCNC(=N)N)NC(=O)[C@H](CC(C)C)NC(=O)[C@H](CC(C)C)NC(=O)[C@H](CCC(N)=O)NC(=O)[C@H](Cc1ccccc1)NC(=O)[C@@H]1CCCN1C(=O)[C@@H](NC(=O)[C@H](CC(=O)O)NC(=O)[C@@H](NC(=O)[C@H](CO)NC(=O)[C@@H](NC(=O)[C@@H]1CCCN1C(=O)[C@@H]1CCCN1C(=O)CNC(=O)[C@@H]1CCC(=O)N1)[C@@H](C)CC)[C@@H](C)CC)C(C)C)[C@@H](C)CC)[C@@H](C)CC)[C@@H](C)O)[C@@H](C)O)C(=O)N[C@@H](CC(C)C)C(=O)N[C@@H](C)C(=O)N[C@@H](CCCNC(=N)N)C(=O)N[C@H](C(N)=O)C(C)C [compound 172] | 68 | 100 |
